Measurements from ChEMBL document CHEMBL4190171, “Chemical probes and inhibitors of bromodomains outside the BET family” (Medchemcomm, 2016).

Sequences of proteins named here, by UniProt entry; tags and fusion partners are left off.
UniProt Q92831, whole entry: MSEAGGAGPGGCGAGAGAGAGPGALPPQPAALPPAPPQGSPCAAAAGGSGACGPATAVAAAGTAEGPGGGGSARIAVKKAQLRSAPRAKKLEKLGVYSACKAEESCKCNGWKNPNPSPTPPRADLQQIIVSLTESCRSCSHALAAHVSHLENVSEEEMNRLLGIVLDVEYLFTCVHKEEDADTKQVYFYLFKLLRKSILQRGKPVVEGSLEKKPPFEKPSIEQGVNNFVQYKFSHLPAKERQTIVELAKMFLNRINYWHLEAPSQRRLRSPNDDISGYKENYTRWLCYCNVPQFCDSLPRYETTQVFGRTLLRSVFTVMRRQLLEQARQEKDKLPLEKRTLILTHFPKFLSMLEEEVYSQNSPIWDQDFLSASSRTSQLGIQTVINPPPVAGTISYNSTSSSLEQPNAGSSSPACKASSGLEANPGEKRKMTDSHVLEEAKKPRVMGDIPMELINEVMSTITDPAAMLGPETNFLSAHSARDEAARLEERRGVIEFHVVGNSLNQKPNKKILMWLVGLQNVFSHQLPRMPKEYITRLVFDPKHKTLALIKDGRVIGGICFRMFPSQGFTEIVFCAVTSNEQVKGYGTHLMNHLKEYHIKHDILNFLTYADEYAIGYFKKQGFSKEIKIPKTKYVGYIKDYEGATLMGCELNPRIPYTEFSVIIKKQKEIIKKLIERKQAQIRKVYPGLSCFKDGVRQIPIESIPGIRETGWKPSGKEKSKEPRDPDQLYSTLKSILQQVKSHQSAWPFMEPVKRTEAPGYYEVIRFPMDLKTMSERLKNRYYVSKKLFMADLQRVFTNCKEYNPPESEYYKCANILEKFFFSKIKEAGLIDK

Biological target: Histone acetyltransferase KAT2B (Homo sapiens, UniProt Q92831)

CC(C)C[C@H]1C[C@@H](Nc2cnn(C)c(=O)c2Cl)CN(C)C1
IC50: 13 nM
